The test system of one assay is MAb 49H.8. As to the kind of experiment: Heterologous sandwich radioimmunoassay for TF antigen, MAb 49H.8 as catcher, 125I-PNA as probe. The following applies: 125I activity per well (gamma counter), SD printed beside, dilution or amount of each sample printed in its row head. Type of assay: binding, murine. How it is done: (§1) Nonionic detergent (NP-40 or octyl glucoside) extracts of 647V and LS174T cells, culture media conditioned by these cells, and a pleural effusion from a breast cancer patient (PE 89) were tested for TF antigen using a heterologous sandwich radioimmunoassay. Epiglycanin, a murine TF antigen, and TF(α)-HSA, a synthetic TF antigen, served as positive control samples, while HSA, fresh culture media, and detergent extraction buffers served as negative control samples. An isotype matched (IgM) myeloma protein (MOPC-104E) was used further to confirm the specificity of this assay.
(§2) Breakable strips of microtitre wells were coated with MAb 49H.8 or a control antibody (MOPC-104E), 1 μg/well, by overnight incubation at 4° C. The wells were then serially incubated with FBS 5% in PBS at 37° C. for 30 minutes, with antigen solution at 37° C. for two hours, and with radioiodinated PNA (2×10^5 cpm/well) at room temperature for two hours. The wells were washed with PBS containing 0.05% Tween-20 after each of the above steps. Each well was counted for ^125 I activity using a gamma counter.

The next assay deals with MOPC-104E. As to the kind of experiment: Sandwich radioimmunoassay with control antibody MOPC-104E as catcher, 125I-PNA as probe. Type of assay: binding. The following applies: isotype matched control catcher; 125I activity per well; SD printed beside. On the procedure:
as §1, §2

Turning to “HSA: negative control sample; 10 μg in Table 1”, the “Sandwich Radioimmunoassay for TF Antigen using 125I-PNA as a Probe, MAb 49H.8 as Catcher” value in the assay on MAb 49H.8 is given as 351. Further, in the assay with MOPC-104E, the “Sandwich Radioimmunoassay for TF Antigen using 125I-PNA as a Probe, MOPC-104E as Catcher” value was 278.

Take “TF(α)-HSA: a synthetic TF antigen, positive control; 10 μg in Table 1”: the “Sandwich Radioimmunoassay for TF Antigen using 125I-PNA as a Probe, MAb 49H.8 as Catcher” value was 3 997 with MAb 49H.8 and “positive reactivity” in the assay on MAb 49H.8 (listed as TF(o)-HSA). Moreover, the “Sandwich Radioimmunoassay for TF Antigen using 125I-PNA as a Probe, MOPC-104E as Catcher” value in the assay with MOPC-104E is listed as 465.
